Measured values taken from patent publication US7601735B2, “Antiviral compounds” (priority 2001, dated 2009).

Test system: BVDV NADL
Test: XTT cytopathicity assay, infected cells
Type: cell-based, bovine viral diarrhoea virus
Conditions: in one experiment
Procedure: The cells were washed twice in warm phosphate buffered saline (PBS) and then infected with BVDV NADL (100 pfu/well) in 100 μl of DMEM supplemented with 5% horse serum, 2 mM L-glutamine, 50 U/ml penicillin and 50 μg/ml streptomycin. Some wells were mock infected to act as controls. A further 100 μl of DMEM supplemented as above, but containing different concentrations of test compound or no compound was then added to each well. Triplicate wells were used for each compound concentration. In parallel, uninfected cells were treated with compound to assess cytotoxicity. The plates were then incubated at 37° C. with 5% CO2. […] The absorbance was then determined at 450 nm.

## CCCCCCCCCN1C[C@H](O)[C@@H](O)[C@H](O)[C@H]1CO [N-Nonyl-DNJ, N-nonyl-deoxynojirimycin]
  selectivity index: 2 fold
